Experimental data published in patent US20140066431A1, “Benzoxazepines as Inhibitors of PI3K/mTOR and Methods of Their Use and Manufacture” (Exelixis, Inc., priority 2010, published 2014).

Amino acid sequences for entries named in this document (tags omitted). A change or cut given only in a name is not applied to a line headed by its entry.
UniProt P42338: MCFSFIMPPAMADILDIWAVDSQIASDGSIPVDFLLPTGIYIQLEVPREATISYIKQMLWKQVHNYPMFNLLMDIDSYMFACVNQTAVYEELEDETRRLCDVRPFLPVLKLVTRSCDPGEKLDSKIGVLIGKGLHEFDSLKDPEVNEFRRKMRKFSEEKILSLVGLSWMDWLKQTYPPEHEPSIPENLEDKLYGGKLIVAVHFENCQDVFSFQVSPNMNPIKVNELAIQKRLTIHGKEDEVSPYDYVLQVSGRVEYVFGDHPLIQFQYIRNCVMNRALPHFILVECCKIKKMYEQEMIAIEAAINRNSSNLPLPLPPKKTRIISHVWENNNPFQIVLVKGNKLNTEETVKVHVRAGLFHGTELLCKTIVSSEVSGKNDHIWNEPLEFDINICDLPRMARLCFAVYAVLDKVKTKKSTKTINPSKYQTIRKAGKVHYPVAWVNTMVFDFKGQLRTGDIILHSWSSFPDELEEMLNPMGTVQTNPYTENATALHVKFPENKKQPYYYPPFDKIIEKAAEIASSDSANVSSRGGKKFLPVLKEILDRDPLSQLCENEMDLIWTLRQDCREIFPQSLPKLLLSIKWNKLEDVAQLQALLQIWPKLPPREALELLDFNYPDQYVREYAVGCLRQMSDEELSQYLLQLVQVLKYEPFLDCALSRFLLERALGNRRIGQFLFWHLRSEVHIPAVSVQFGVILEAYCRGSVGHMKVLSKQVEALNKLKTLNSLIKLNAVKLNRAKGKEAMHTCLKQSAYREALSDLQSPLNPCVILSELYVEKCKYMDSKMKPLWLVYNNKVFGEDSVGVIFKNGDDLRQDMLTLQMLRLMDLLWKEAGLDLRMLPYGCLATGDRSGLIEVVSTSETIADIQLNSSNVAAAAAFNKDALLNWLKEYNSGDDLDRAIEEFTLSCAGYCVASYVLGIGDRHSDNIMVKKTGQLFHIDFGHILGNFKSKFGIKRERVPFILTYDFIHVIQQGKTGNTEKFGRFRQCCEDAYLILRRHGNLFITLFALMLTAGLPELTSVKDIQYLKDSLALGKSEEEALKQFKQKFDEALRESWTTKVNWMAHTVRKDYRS

Columns and labels:
PI3Kβ = PI3Kβ (Homo sapiens, UniProt P42338); assay: PI3K biochemical assay, PI3Kβ; settings: PIP2 as substrate
Experimental: PI3Kα activity is measured as the percent of ATP consumed following the kinase reaction using luciferase-luciferin-coupled chemiluminescence. Reactions were conducted in 384-well white, medium binding microtiter plates (Greiner). Kinase reactions were initiated by combining test compounds, ATP, substrate (PIP2), and kinase in a 20 μL volume in a buffer solution. The standard PI3Kalpha assay buffer is composed 50 mM Tris, pH 7.5, 1 mM EGTA, 10 mM MgCl2, 1 mM DTT and 0.03% CHAPS. The standard assay concentrations for enzyme, ATP, and substrate are 1.5 nM, 1 μM, and 10 μM, respectively. The reaction mixture was incubated at ambient temperature for approximately 2 h. Following the kinase reaction, a 10 μL aliquot of luciferase-luciferin mix (Promega Kinase-Glo) was added and the chemiluminescence signal measured using a Victor2 plate reader (Perkin Elmer). Total ATP consumption was limited to 40-60% and IC50 values of control compounds correlate well with literature references. Substituting PI3Kα with PI3Kβ, PI3Kγ, or PI3Kδ, the inhibitory activity of the compounds for the other isoforms of I3K were measured.

[1] = tested on: PC3 (PTEN null) cellular model; assay: pAKT (T308) ELISA assay, PC3; type: cell-based; settings: Homo sapiens; LPA stimulation
Experimental: In another embodiment, the pAKT ELISA Assay was performed by seeding cells onto 96-well plates (Corning, 3904) in their respective growth media at the densities listed in Table 3. Cells were incubated at 37° C., 5% CO2 for 48 h (except MDA-MB-453 cells which were cultured in the absence of CO2). Compounds were serially diluted in DMSO and subsequently diluted in serum-free DMEM. Test compounds were added to cells in serum-free DMEM at a final concentration of 0.3% DMSO and incubated for 3 h. Cells were lysed with 130 μL of ice-cold RIPA lysis buffer (50 mM Tris-HCl, pH 7.5; 0.5% sodium deoxycholic acid; 1% Triton X-100; 0.1% SDS; 150 mM NaCl) with protease and phosphatase inhibitors (1 mM EDTA, 1 mM NaF, 20 mM β-glycerophosphate, 1 mM Na-orthovanadate, Complete-Mini EDTA-free, Roche, 11836170001, and Phosphatase Inhibitor Cocktail I, Sigma, P2850), directly in 96-well plates. Cells were lysed on ice for 60-120 min at 4° C. The supernatants were added directly to capture ELISA plates previously pre-coated with rabbit anti-AKT capture antibody. […] The wells were measured for luminescence using a Wallac plate reader at wavelength of 560 nm. After normalization of pAKT signal to total AKT1 signal, IC50 values were determined relative to the DMSO-treated control.

## Cc1cc(C(C)Nc2ccccc2)c2nc(N3CCOCC3)cc(=O)n2c1 (centres unmarked) [TGX-221, 7-methyl-2-(4-morpholinyl)-9-[1-(phenylamino)ethyl]-4H-pyrido[1,2-a]pyrimidin-4-one]
PI3Kβ
  IC50: 0.016 µM
[1]
  IC50: 0.016 µM
